Measured values: US9271963B2, “Selective inhibitors of human corticosteroid synthases” (UNIVERSITAT DES SAARLANDES, priority 2005, dated 2016)
Read-outs that look alike come from different tables or passages of the source.

Sequences of proteins named here, by UniProt entry; tags and fusion partners are left off. Residues count along the entry.
UniProt P15538, 25-503: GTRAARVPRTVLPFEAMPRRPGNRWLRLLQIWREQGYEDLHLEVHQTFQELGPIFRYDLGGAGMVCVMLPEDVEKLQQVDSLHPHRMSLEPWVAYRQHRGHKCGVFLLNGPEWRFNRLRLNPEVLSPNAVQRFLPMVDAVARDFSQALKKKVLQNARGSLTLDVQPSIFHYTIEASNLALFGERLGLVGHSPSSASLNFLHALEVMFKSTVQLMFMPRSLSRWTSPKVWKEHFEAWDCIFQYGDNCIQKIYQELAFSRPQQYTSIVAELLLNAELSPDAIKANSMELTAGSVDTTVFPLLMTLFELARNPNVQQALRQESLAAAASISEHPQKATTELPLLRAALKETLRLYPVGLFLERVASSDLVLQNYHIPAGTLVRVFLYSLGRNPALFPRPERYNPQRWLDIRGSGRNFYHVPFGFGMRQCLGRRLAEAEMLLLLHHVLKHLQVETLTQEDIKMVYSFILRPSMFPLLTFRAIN

Target: CYP11B1 (Homo sapiens (Human), UniProt P15538)
Test: Inhibition test in V79 MZh11B1 cells (hamster fibroblasts expressing human CYP11B1)
Format: cell-based

IC50 (Table 2, deoxycorticosterone substrate 100 nM, read-out: IC50 value V79 11B1 hCY11B1): 638 nM | IC50 (read-out: IC50 in V79MZh 11B1 cells (CYP11B1 inhibition)): 206 to 805 nM
Structure (SMILES): C1=C(n2ccnc2)CCc2ccccc21 [Compound 45, 1-(3,4-Dihydronaphthalene-2-yl)-1H-imidazole]
